miR-21 reporter: miR-21 reporter, rising signal. HeLa miR-21 FLuc reporter, luciferase, 48 h. Potency, µM (titrated, usually from 38.3 µM), without a hit: at the top dose reporter change, positive = more light. 340,000 tested, under 10 active. AID 2288; active = well fitted rising curve with a large enough effect; inconclusive = small, poorly fitted or top-dose-only effect; inactive = no such curve, though single readings can be large or run the other way;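 also: % of control where 0% means no effect; miR-21 action dims this reporter so a rising signal means less miR-21 action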
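Using DMEM plus 10% FBS, HeLa miR-21-FLuc cells are incubated with test compounds (final up to about 40uM) for 48 hours; firefly luciferase signal is then imaged following reagent-mediated lysis.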
uPA generation: inhibitors of cell surface uPA generation; cell surface uPA generation assay, qHTS; Potency, µM (titrated, usually from 38.3 µM), inactives show top-dose activity change, negative = inhibition, actives largely listed as inhibitors; 0.31% of 330,000 active; active = well fitted inhibition curve with a large enough effect; inconclusive = small, poorly fitted or top-dose-only effect; inactive = no such curve, though single readings can be large or run the other way; tested in mouse RAW 264.7 cells; also: potency is read from the fitted curve at half-maximal effect; % is scaled to controls: 0 for no effect and ±100 for the full control effect; nearly all actives have a fitted effect of over 55% in size
TDP1 cell CPT: DT40-hTDP1 cell growth loss with CPT. AID 686979. 12% of 420,000 active. chicken DT40 Tdp1-/-;hTDP1 cells + 20 nM CPT, ATP luminescence, 48 h. Potency, µM (titrated, usually from 46.2 µM), for inactives: top-dose activity change, negative = growth inhibition, actives largely listed as inhibitors; also: potency is read from the fitted curve at half-maximal effect; % is scaled to controls: 0 for no effect and ±100 for the full control effect; nearly all actives have a fitted effect of over 55% in size
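Chicken DT40 Tdp1-/- cells stably complemented with human TDP1 were seeded at 400 cells/well in medium containing 20 nM camptothecin, exposed to pin-transferred compounds, and grown at 37 °C for at least 48 hr. Viability was read as ATP luminescence.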
TDP1 block: inhibitors of human tyrosyl-DNA phosphodiesterase TDP1. AID 485290. Potency, µM (top dose mostly 130 µM), inactives show top-dose activity change, negative = inhibition, actives largely listed as inhibitors. Q9NUW8. 0.28% of 350,000 active. recombinant TDP1, AlphaScreen DNA substrate cleavage; also: potency is read from the fitted curve at half-maximal effect; % is scaled to controls: 0 for no effect and ±100 for the full control effect; nearly all actives have a fitted effect of over 40% in size
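Recombinant human Tdp1 (E. coli-expressed, 1 nM final) preincubated with compounds 15 min at room temperature, then 5'-biotin/3'-phosphotyrosine-FITC DNA substrate (15 nM final) added for 5 min. AlphaScreen beads (10 ug/ml final) added 10 min; cleavage lowers signal.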
TDP1 cell noCPT: qHTS for Inhibitors of human tyrosyl-DNA phosphodiesterase 1 (TDP1): qHTS in cells in absence of CPT. DT40 Tdp1-/- hTDP1 cells, no CPT, ATP luminescence, 48 h. Potency, µM (doses to about 46.2 µM), for the others: top-dose activity change, negative = growth inhibition, hits mostly inhibitors. 15% of 420,000 active. AID 686978, 2013; also: potency is read from the fitted curve at half-maximal effect; % is scaled to controls: 0 for no effect and ±100 for the full control effect; nearly all actives have a fitted effect of over 55% in size
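DT40 Tdp1-/-;hTDP1 cells, no CPT (DMSO vehicle only), 400 cells/well; compounds pin-transferred; ≥48 hr, 37 °C; CellTiter-Glo 30 min RT dark, luminescence read.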
The depositor's hits bear a star; ? = inconclusive; / = no result given; [ ] = remark or other dose. Hits are enriched below; roughly 16% of the tested compounds scored in any of these assays. Unless noted, calls follow the shape of the dose curve; as a rule, active = well fitted curve in the direction sought with a large enough effect; inconclusive = small, poorly fitted or top-dose-only effect, or another doubt; inactive = no such curve, though single readings can be large; an effect the other way counts as inactive or inconclusive.

#1 COc1ccc(CNC(=O)CN2CCC(NC(=O)c3cccc(OC)c3)CC2)cc1
#2 CCCN(C(=O)C1CCN(S(=O)(=O)c2c(C)noc2/C=C/c2ccc(C)cc2)CC1)c1ccccc1F
#3 CNC(=O)C1CCN(S(=O)(=O)c2c(C)noc2/C=C/c2ccc(C)cc2)CC1
#4 Cc1ccc(/C=C/c2onc(C)c2S(=O)(=O)N2CCC(C(=O)N3CCN(c4cc(C)ccc4C)CC3)CC2)cc1
#5 Cc1cccc(/C=C/c2onc(C)c2S(=O)(=O)N2CCC(C(=O)N3CCCCC3)CC2)c1
#6 Cc1ccc(/C=C/c2onc(C)c2S(=O)(=O)N2CCC(C(=O)N3CCCCC3)CC2)cc1

assay / entry | 1 | 2 | 3 | 4 | 5 | 6
TDP1 block | / | -5.3% | / | 0.6% | 1.3% | /
uPA generation | -1.2% | / | 9.3% | / | -15.3% | 7.2%
miR-21 reporter | / | -0.9% | -1.8% | 9.1% | 1.0% | -4.0%
TDP1 cell CPT | -1.2% | ? | ? | ? | 29.1µM* | ?
TDP1 cell noCPT | -21.1% | 23.1µM* | ? | ? | 18.4µM* | ?

#7 Cc1cccc(N2CCN(C(=O)C3CCN(S(=O)(=O)c4c(C)noc4C)CC3)CC2C)c1 (configuration not stated)
#8 CCCN1CCN(C(=O)C2CCN(S(=O)(=O)c3c(C)noc3/C=C/c3ccc(C)cc3)CC2)CC1
#9 COc1cc(S(=O)(=O)NCCc2c(C)[nH]c3ccc(C)cc23)ccc1Br
#10 CC(C)CCNC(=O)CN(C(=O)CCC(=O)Nc1ccccn1)c1ccc2c(c1)OCCO2
#11 CCOC(=O)C1CCCN(C(=O)C2CCN(S(=O)(=O)c3c(C)noc3/C=C/c3ccc(C)cc3)CC2)C1 (configuration not stated)
#12 COc1cc(/C=N/N=C2/SCC(=O)N2c2ccc(O)cc2)ccc1O

assay / entry | 7 | 8 | 9 | 10 | 11 | 12
TDP1 block | 7.4% | 7.7% | 11.6% | 2.8%[56.1 µM] | 0.6% | 1.2%
uPA generation | -5.8% | ? | / | 2.2% | / | -4.1%
miR-21 reporter | 18.1% | -1.2% | -1.5% | -18.7% | 10.2% | 10.9%
TDP1 cell CPT | 8.2µM* | 20.6µM* | ? | -7.6% | 18.4µM* | 9.2µM*
TDP1 cell noCPT | 9.2µM* | 20.6µM* | ? | -17.9% | ? | 20.6µM*

#13 COc1ccc(C)cc1Nc1n[n+](C)c(-c2ccc(O)cc2O)s1
#14 COc1ccc(C)cc1Nc1n[n+](-c2ccccc2)c(-c2c(Cl)cccc2Cl)s1
#15 COc1ccc(C)cc1Nc1n[n+](-c2ccccc2)c(-c2ccc(N(C)C)cc2)s1
#16 COc1ccc(C)cc1Nc1n[n+](-c2ccccc2)c(-c2ccc(OC)c(OC)c2OC)s1
#17 Cn1c(O)c(N=NC(N)=S)c2ccccc21
#18 Cn1c(O)c(N=NC(=O)c2ccccc2O)c2ccccc21

assay / entry | 13 | 14 | 15 | 16 | 17 | 18
TDP1 block | / | / | / | / | / | ?
uPA generation | 1.0% | ? | ? | ? | / | -5.7%
miR-21 reporter | 1.1% | ? | 17.7% | 13.4% | / | -36.6%
TDP1 cell CPT | -13.4% | 20.6µM* | 10.3µM* | 16.4µM* | 6.68µM* | 13µM*
TDP1 cell noCPT | -23.4% | 13µM* | 20.6µM* | 18.4µM* | 5.31µM* | 16.4µM*

#19 Cc1occc1C(=O)N=Nc1c(O)n(C)c2ccccc12
#20 CCOC(=O)C(=O)N=Nc1c(O)n(C)c2ccccc12
#21 Cc1cc(N=NC(=O)c2ccccc2O)c2ccccc2c1O
#22 Cn1c(O)c(N=NC(=O)c2ccco2)c2ccccc21
#23 COc1ccc2cc(C3CC(c4ccco4)=NN3S(=O)(=O)c3ccccc3)c(Cl)nc2c1 (configuration not stated)
#24 COc1ccccc1C1CC(c2ccco2)=NN1S(C)(=O)=O (configuration not stated)

assay / entry | 19 | 20 | 21 | 22 | 23 | 24
TDP1 block | 4.2% | 2.4% | 2.6% | -3.6% | 0.0% | -1.2%
uPA generation | -11.1% | -8.6% | -7.7% | -8.8% | 2.4% | 1.7%
miR-21 reporter | -50.4% | -1.2% | -25.1% | -33.7% | -15.6% | -29.1%
TDP1 cell CPT | -10.7% | -6.3% | 16.4µM* | -0.3% | ? | 20.6µM*
TDP1 cell noCPT | ? | 17.9% | 18.4µM* | 14.6µM* | 14.6µM* | ?

#25 CC(O)CNc1nc2c(c(=O)n(C)c(=O)n2C)n1CCc1ccccc1 (configuration not stated)
#26 CC(C)CCn1c(Oc2ccc(Cl)cc2)nc2c1c(=O)n(C)c(=O)n2C
#27 CCCNc1nc2c(c(=O)n(C)c(=O)n2C)n1Cc1cccc(C)c1
#28 CC(C)CCn1c(Oc2ccccc2F)nc2c1c(=O)n(C)c(=O)n2C
#29 CCCCC(=O)NCCNc1nc2c(c(=O)n(C)c(=O)n2C)n1Cc1ccccc1
#30 CCCNc1nc2c(c(=O)n(C)c(=O)n2C)n1CCC(C)C

assay / entry | 25 | 26 | 27 | 28 | 29 | 30
TDP1 block | 5.7% | 1.1% | 1.9% | 9.3% | 2.2% | 0.0%
uPA generation | -1.9% | 3.0% | -8.7% | / | 5.3% | -7.2%
miR-21 reporter | 14.3% | -1.1% | 7.9% | -4.3% | -4.2% | 14.4%
TDP1 cell CPT | ? | ? | 7.31µM* | 18.4µM* | ? | 16.4µM*
TDP1 cell noCPT | 16.4µM* | ? | 5.8µM* | ? | ? | 16.4µM*

#31 Cn1c(=O)c2c(nc(NCC(O)CO)n2CCc2ccccc2)n(C)c1=O (configuration not stated)
#32 COCCCn1c(SCC(=O)N2CCc3ccccc32)nnc1-c1ccoc1C
#33 Cc1ccc(C)c(CNC(=O)CN2C(=O)CSc3ccc(S(=O)(=O)N(C)C)cc32)c1
#34 CCCNc1nc2c(c(=O)n(C)c(=O)n2C)n1CCc1ccccc1
#35 CCCNc1nc2c(c(=O)[nH]c(=O)n2C)n1CCc1ccccc1
#36 Cn1c(=O)c2c(nc(NCCCO)n2CCc2ccccc2)n(C)c1=O

assay / entry | 31 | 32 | 33 | 34 | 35 | 36
TDP1 block | -4.8% | / | 5.3% | 2.1% | -1.0% | 5.0%
uPA generation | 6.0% | 4.8% | / | / | 2.4% | 2.0%
miR-21 reporter | -2.7% | / | -4.3% | 21.9% | -1.3% | -1.3%
TDP1 cell CPT | -23.0% | -8.7% | ? | 5.01µM* | 0.8% | -12.8%
TDP1 cell noCPT | ? | -23.4% | ? | 7.08µM* | -17.4% | -29.9%

#37 CCCCNc1nc2c(c(=O)n(C)c(=O)n2C)n1CCC
#38 CCCNc1nc2c(c(=O)[nH]c(=O)n2C)n1CCCc1ccccc1
#39 CCCCCCn1c(NCC)nc2c1c(=O)n(C)c(=O)n2C
#40 Cn1c(=O)c2c(nc(NCCO)n2CCc2ccccc2)n(C)c1=O
#41 CCCNc1nc2c(c(=O)n(C)c(=O)n2C)n1CCCc1ccccc1
#42 CCc1ccc(C)[n+](CC(=O)c2cccs2)c1

assay / entry | 37 | 38 | 39 | 40 | 41 | 42
TDP1 block | / | 1.0% | 2.1% | 2.4% | / | /
uPA generation | -5.9% | -2.3% | -9.5% | -10.8% | -1.9% | -8.2%
miR-21 reporter | -9.8% | -2.2% | 26.5% | 15.0% | 2.3% | 0.7%
TDP1 cell CPT | ? | -11.2% | 6.51µM* | 16.4µM* | 13µM* | ?
TDP1 cell noCPT | ? | -0.5% | 2.59µM* | 11.6µM* | 18.4µM* | ?

#43 CCc1c(C#N)c(SCc2c(C)noc2C)nc2c1C(=O)CC(C)(C)C2
#44 O=C(OCCc1cc2ccccc2c(=O)o1)c1ccco1
#45 CN(C)S(=O)(=O)N1CCC(n2c(C(F)(F)F)nc3cccnc32)CC1
#46 O=S(=O)(c1ccc(F)cc1)N1CCC(n2c(C(F)(F)F)nc3cccnc32)CC1
#47 N=c1oc2ccc(Br)cc2cc1C(=O)NCc1ccc(F)cc1

assay / entry | 43 | 44 | 45 | 46 | 47
TDP1 block | 3.8% | 1.0% | 2.6% | 2.6% | 2.7%
uPA generation | 5.7% | -0.1% | / | / | 6.7%
miR-21 reporter | 5.0% | / | -6.5% | 10.0% | 0.8%
TDP1 cell CPT | 25.9µM* | -7.2% | ? | 11.6µM* | ?
TDP1 cell noCPT | ? | -3.7% | -3.8% | -102.8% | 8.2µM*

Whole records, quoted from the list. Screens in order: TDP1 block, uPA generation, miR-21 reporter, TDP1 cell CPT, TDP1 cell noCPT
O=S(=O)(c1ccc(F)cc1)N1CCC(n2c(C(F)(F)F)nc3cccnc32)CC1 is entered as 2.6%, /, 10.0%, 11.6µM*, -102.8%
O=C(OCCc1cc2ccccc2c(=O)o1)c1ccco1 is entered as 1.0%, -0.1%, /, -7.2%, -3.7%
CCc1c(C#N)c(SCc2c(C)noc2C)nc2c1C(=O)CC(C)(C)C2 is entered as 3.8%, 5.7%, 5.0%, 25.9µM*, ?
N=c1oc2ccc(Br)cc2cc1C(=O)NCc1ccc(F)cc1 is entered as 2.7%, 6.7%, 0.8%, ?, 8.2µM*
